This test deals with T1, DAT Dopamine Transporter (Rattus norvegicus, UniProt P23977).
T1 construct: male wistar rats (125-250 g) are sacrificed by decapitation and striatum quickly dissected out; from tissue; host or cells: rat striatum, P2 fraction
Briefly: Measurements of [3H]dopamine uptake into rat cortical synaptosomes. Format: biochemical. As to the method:
Measurements of [^3H]Dopamine Uptake Into Rat Cortical Synaptosomes
The tissue is gently homogenised (glass teflon homogeniser) and the P2 fraction is obtained by centrifugation (1000 g, 10 minutes and 40000 g, 20 minutes, 4° C.) and suspended in 560 volumes of a modified Krebs-Ringer-phosphate buffer, pH 7.4.
Tissue 0.25 mg/well (140 μl) (original tissue) is mixed with test suspension. […] Final volume is 0.2 mL. The incubation is terminated by filtering the samples under vacuum through Whatman GF/C filters with a wash of 1×0.2 ml buffer. The filters are dried and appropriate scintillation fluid (Optiphase Supermix) is added. After storage for 2 hours in the dark the content of radioactivity is determined by liquid scintillation counting. Uptake is obtained by subtracting the non-specific binding and passive transport measured in the presence of 100 μM of benztropin. For determination of the inhibition of uptake ten concentrations of drugs covering 6 decades are used.
^3H-DA=3,4-(ring-2,5,6-^3H)dopamine hydrochloride from New England Nuclear, specific activity 30-50 Ci/mmol.

By UniProt entry, the sequences of proteins in these tests, tags left out.
UniProt P23977, whole entry: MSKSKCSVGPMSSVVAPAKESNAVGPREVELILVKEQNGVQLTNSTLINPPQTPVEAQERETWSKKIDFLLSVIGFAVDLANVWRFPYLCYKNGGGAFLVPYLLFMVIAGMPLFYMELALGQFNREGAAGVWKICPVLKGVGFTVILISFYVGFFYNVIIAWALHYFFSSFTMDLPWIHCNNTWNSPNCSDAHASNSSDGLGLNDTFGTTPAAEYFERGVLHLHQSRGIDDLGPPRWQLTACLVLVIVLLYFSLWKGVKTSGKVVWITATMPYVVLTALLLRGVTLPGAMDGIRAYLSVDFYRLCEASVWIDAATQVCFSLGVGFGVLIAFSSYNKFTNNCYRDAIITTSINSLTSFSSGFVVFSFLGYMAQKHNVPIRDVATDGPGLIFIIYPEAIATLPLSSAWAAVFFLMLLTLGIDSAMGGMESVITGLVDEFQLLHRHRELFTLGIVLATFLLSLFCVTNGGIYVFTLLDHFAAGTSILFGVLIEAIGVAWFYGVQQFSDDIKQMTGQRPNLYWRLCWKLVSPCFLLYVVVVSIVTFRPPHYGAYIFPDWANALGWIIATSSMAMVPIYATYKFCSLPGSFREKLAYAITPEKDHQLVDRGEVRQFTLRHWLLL

One may read the IC50 as the concentration that gives 50% inhibition. `CNC1CC(c2ccc(Cl)c(Cl)c2)c2ccccc21` (stereo not shown) [Indatraline, reference compound] had a 50% inhibitory concentration (IC50) of 0.1 to 200 nM.
